# AlphaSeq binding of Ab-14 heavy chain variants to a spike HR2 peptide

Target: peptide PDVDLGDISGINAS, taken from heptad repeat 2 (HR2) of SARS-CoV-2 spike.

Each scFv is VH, a 15-residue (Gly4Ser)3 linker, VL, as in the parent Ab-14, and differs from it in the CDRs of the heavy chain only.
VH: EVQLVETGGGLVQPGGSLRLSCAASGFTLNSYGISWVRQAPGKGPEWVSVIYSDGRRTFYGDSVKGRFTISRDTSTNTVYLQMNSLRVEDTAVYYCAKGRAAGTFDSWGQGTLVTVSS
VL: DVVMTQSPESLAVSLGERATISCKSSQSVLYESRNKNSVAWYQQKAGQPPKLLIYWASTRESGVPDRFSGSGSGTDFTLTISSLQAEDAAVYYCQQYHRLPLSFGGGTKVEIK

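Phage display of a naive human antibody library on the peptide gave the parent. The library (AAYL49) carries one to three amino acid substitutions per variant, with no insertions or deletions. AlphaSeq pools MATa yeast showing the antibodies with MATalpha yeast showing the peptide. Binding brings cells together so that they mate, and sequencing counts the barcode pairs among the diploids. Read counts were normalised to the haploid input and turned into Kd by a linear fit to BCL2-family pairs of known affinity, for each replicate. Each pool was mated in three replicate cultures.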

Each variant is given by its three heavy chain CDRs, as the data file delimits them; those of the parent are GFTLNSYGIS, VIYSDGRRTFYGDSVK, GRAAGTFDS. Affinities are written as log10 Kd with Kd in nM; a lower number is a better binder. Replicates are averaged; those with no signal do not enter the mean. Where no diploid with the target was found in that replicate, the entry reads "n.d.": below detection, most likely a poor binder, though not proof of it.

CDR-H1	CDR-H2	CDR-H3	log10 Kd (nM) by replicate	mean, log10 nM	empty controls
GFTLNSYGIS	VIYSDGRRTFYGDSVS	WRAAGTFHS	1.32 / 1.31 / 1.43	1.35	4/9 (4.96)
GFTLNSYGIS	VIYSYGRRTEAGDSVK	GRAAGTFDS	n.d. / n.d. / 4.16	4.16	0/9
GFTGNSYGIS	CIYSDGRRTFYGDSVK	GRAAGTFDR	n.d. / 4.43 / 5.80	5.11	1/9 (2.78)
GQTVNSYGIS	VIYSDGRRTFYGDSVI	GRAAGTFDS	n.d. / 3.72 / 3.75	3.74	0/9
MFTLNSGGIS	VIYSDGRRTFYGDSVK	GRAAGTFIS	5.18 / 4.36 / 4.79	4.77	3/9 (4.03)
GDTLNHYGIP	VIYSDGRRTFYGDSVK	GRAAGTFDS	n.d. / 4.05 / 4.74	4.40	3/9 (4.97)
GFTLNSYMIS	VIYIDGRRTFYGDSVK	GRAAGTFDA	n.d. / n.d. / n.d.	n.d.	0/9
GTTLNSPGIS	VIYSMGRRTFYGDSVK	GRAAGTFDS	n.d. / n.d. / 2.20	2.20	0/9
GFTLWSYGIS	VIYSDGRRTFYGTSVK	GRAAGTFDS	3.67 / 3.41 / n.d.	3.54	3/9 (3.91)
GFTLNKYGIS	VAYSDGQRTFYGDSVK	GRAAGTFDS	2.67 / 2.79 / 3.06	2.84	0/9
GNTLYDYGIS	VIYSDGRRTFYGDSVK	GRAAGTFDS	1.32 / 1.42 / 1.43	1.39	5/9 (4.64)
GFTLNSYGIS	VIYSDGRRTFYGDSVQ	GRAAGAFDS	2.92 / n.d. / n.d.	2.92	0/9
GFTLNSYGIS	VIYSDLRRTFYGDSVK	ARAAGTFDS	n.d. / n.d. / n.d.	n.d.	0/9
VFTLNSDSIS	VIYSDGRRTFYGDSVK	GRAAGTFDS	n.d. / n.d. / n.d.	n.d.	0/9
GFTLNSYGIS	VIYSDGRRTTYGDSGK	GRNAGTFDS	2.06 / 1.86 / 1.84	1.92	3/9 (3.90)
GFLLNSFGIS	VIYSDGRRTFYGDSVK	GRAAVTFDS	2.51 / 2.34 / 2.84	2.56	1/9 (3.25)
GFTLNSYGYS	VIYSDGRRTFEFDSVK	GRAAGTFDS	3.70 / n.d. / n.d.	3.70	2/9 (3.59)
GFTLNSYGIS	VIYSWGRRTFYGDSVK	DRAAGTFTS	n.d. / 4.45 / 5.35	4.90	2/9 (4.79)
GFTLNSYGIS	VIYTDGRRTFYGDRVK	GRAAWTFDS	3.31 / 4.14 / 2.87	3.44	1/9 (4.98)
YFTLNSYGIS	VIYSDGRRTFYGDYFK	GRAAGTFDS	n.d. / n.d. / n.d.	n.d.	3/9 (4.48)
GFTLNSYGIS	VIYSDGRRTFNKRSVK	GRAAGTFDS	n.d. / n.d. / n.d.	n.d.	0/9
GITLNSYGIS	VIYSDGRRTFYGDSIK	NRAAGTFDS	n.d. / n.d. / n.d.	n.d.	0/9
GITLNSYGIS	VIYSDGRRGFYGDSVK	GRSAGTFDS	3.58 / 2.34 / n.d.	2.96	1/9 (2.51)
GFTLNSYGIS	VIDSDGRRIFYGDSVR	GRAAGTFDS	4.89 / n.d. / n.d.	4.89	0/9
GFTLNSSGIS	VIYSDGRRTFYGDSVK	GRANGSFDS	n.d. / n.d. / n.d.	n.d.	2/9 (3.90)
GNTLNSYGIS	VIYSDGRRTFYGDSVK	SRAAGTFDS	n.d. / n.d. / n.d.	n.d.	0/9
GFTLNCYGIS	VIYSDGIRTFYGDSVK	GRMAGTFDS	1.27 / 1.51 / 1.36	1.38	3/9 (4.66)
GFTLNSYGIS	VIYSTGRRTFYTISVK	GRAAGTFDS	n.d. / n.d. / n.d.	n.d.	0/9
GFTLNSYGIS	VIYSDPRRTFYGDSVK	CRAAGTNDS	n.d. / n.d. / n.d.	n.d.	1/9 (3.96)
GFTLNSKGIS	VIYQDGRRTFYGFSVK	GRAAGTFDS	3.86 / n.d. / n.d.	3.86	2/9 (3.42)
GFTLNSAGIS	VIYSDGRRTFYGYSVK	GFAAGTFDS	n.d. / n.d. / n.d.	n.d.	0/9

Repeated from above, the 2 best binders with a signal in all replicates:

CDR-H1	CDR-H2	CDR-H3	log10 Kd (nM) by replicate	mean, log10 nM	empty controls
GFTLNSYGIS	VIYSDGRRTFYGDSVS	WRAAGTFHS	1.32 / 1.31 / 1.43	1.35	4/9 (4.96)
GFTLNCYGIS	VIYSDGIRTFYGDSVK	GRMAGTFDS	1.27 / 1.51 / 1.36	1.38	3/9 (4.66)

Empty control strains, which show no peptide, gave a signal in 15% of pairings with library AAYL49; the median was 4.06 and 95% of these signals were weaker than 2.83. No background was subtracted. The control count says in how many pairings with the empty strains this scFv gave a signal, with their mean in brackets.

Data: MIT Lincoln Laboratory AlphaSeq set, Engelhart et al. 2022, doi:10.1038/s41597-022-01779-4, as distributed in FLAb.